The text below walks through data of ChEMBL document CHEMBL5728787, “Sting agonists” (2021).

Amino acid sequences for entries named in this document (tags omitted). A change or cut given only in a name is not applied to a line headed by its entry.
UniProt Q86WV6: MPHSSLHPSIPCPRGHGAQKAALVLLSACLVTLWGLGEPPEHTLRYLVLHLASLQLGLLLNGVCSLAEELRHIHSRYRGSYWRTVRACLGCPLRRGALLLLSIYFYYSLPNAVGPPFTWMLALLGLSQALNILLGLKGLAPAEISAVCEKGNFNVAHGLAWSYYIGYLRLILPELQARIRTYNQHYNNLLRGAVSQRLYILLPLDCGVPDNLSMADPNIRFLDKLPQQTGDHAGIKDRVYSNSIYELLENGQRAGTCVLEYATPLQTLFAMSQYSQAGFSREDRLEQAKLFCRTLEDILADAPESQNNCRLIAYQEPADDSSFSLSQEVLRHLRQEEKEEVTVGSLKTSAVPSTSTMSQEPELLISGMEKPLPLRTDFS

The target of assay [1] is T1, Stimulator of interferon genes protein (Homo sapiens, UniProt Q86WV6). The assay can be described thus: Binding Assay: A human STING [3H] 2′,3′-cGAMP scintillation proximity competition binding assay was utilized to detect binding of compounds to STING protein. The competition binding assay was conducted with either a wild-type (WT, SEQ ID NO: 1) or an AQ variant (SEQ ID NO: 2) of truncated human STING protein that lacks the N-terminal four transmembrane domains and contains amino acids …. (In general: SPA uses beads or plates that emit light when radiolabelled molecules are held near them.)

For assay [2], the target named is T1, Stimulator of interferon genes protein. The assay is described as above. This is another data set of the same source.

Structures are written as SMILES. Some results are limits rather than exact numbers.

For `Nc1nc2c(ncn2[C@@H]2O[C@@H]3COP(=O)(S)OCCn4c(nc5cncnc54)COP(=O)(S)O[C@@H]2[C@H]3O)c(=O)[nH]1` (some centres undefined), the IC50 in assay [1] and in assay [2] was less than 1000 nM each time.

With `Nc1nc2c(ncn2[C@@H]2O[C@@H]3COP(=O)(O)OCCn4c(nc5cncnc54)COP(=O)(S)O[C@@H]2[C@H]3F)c(=O)[nH]1` (some centres undefined), in assay [1], the IC50 (usually the concentration that gives 50% inhibition) was less than 1000 nM. Regarding `Nc1nc2c(ncn2[C@@H]2O[C@H]3COP(=O)(S)OCCn4c(nc5cncnc54)COP(=O)(S)O[C@@H]2C3)c(=O)[nH]1` (some centres undefined), the IC50 in assay [1] is less than 1000 nM.

`Nc1nc2c(ncn2[C@H]2O[C@@H]3COP(=O)(S)OCC(F)(F)Cn4c(nc5cncnc54)COP(=O)(S)O[C@@H]2[C@@H]3F)c(=O)[nH]1` (some centres undefined) yielded an IC50 in assay [1] of less than 1000 nM. The same measure, in the same setting: the figure for `Nc1nc2c(ncn2[C@H]2O[C@@H]3COP(=O)(S)OCCn4c(nc5cncnc54)COP(=O)(S)O[C@@H]2[C@@H]3O)c(=O)[nH]1` (some centres undefined) is less than 1000 nM. For the compound `Nc1nc2c(nnn2[C@H]2O[C@@H]3COP(=O)(S)OCCn4c(nc5cncnc54)COP(=O)(S)O[C@@H]2[C@H]3F)c(=O)[nH]1` (some centres undefined), the IC50 in assay [1] and in assay [2] was less than 1000 nM in each case. On to `Nc1nc2c(ncn2[C@H]2O[C@@H]3COP(=O)(S)OCCn4nc(-c5ccncc5)nc4COP(=O)(S)O[C@@H]2[C@H]3F)c(=O)[nH]1` (some centres undefined), for which the IC50 in assay [1] is less than 1000 nM.

In turn, `Nc1nc2c(nnn2[C@@H]2O[C@@H]3COP(=O)(S)OCCn4c(nc5cncnc54)COP(=O)(S)O[C@@H]2[C@H]3F)c(=O)[nH]1` (some centres undefined) showed an IC50 in assay [1] of less than 1000 nM. `Nc1nc2c(ncn2[C@H]2O[C@H]3COP(=O)(S)OCCn4c(nc5cncnc54)COP(=O)(S)O[C@@H]2C3)c(=O)[nH]1` (some centres undefined): the IC50 in assay [1] and in assay [2] was less than 1000 nM each time. Turning to `Nc1nc2c(ncn2[C@H]2O[C@@H]3COP(=O)(S)OCCn4c(nc5cc(Cl)cnc54)COP(=O)(S)O[C@@H]2[C@H]3F)c(=O)[nH]1` (some centres undefined), the concentration for half-maximal inhibition (IC50) in assay [1] and in assay [2] was less than 1000 nM in each case. Turning to `Nc1nc2c(ncn2[C@H]2O[C@@H]3COP(=O)(S)OCCn4c(nc5cncnc54)COP(=O)(O)O[C@@H]2[C@H]3F)c(=O)[nH]1` (some centres undefined), the IC50 in assay [1] and in assay [2] was less than 1000 nM each time. In the case of `Nc1nc2c(ncn2[C@H]2O[C@@H]3COP(=O)(S)OCCn4nc(-c5cncs5)nc4COP(=O)(S)O[C@@H]2[C@H]3F)c(=O)[nH]1` (some centres undefined), the IC50 in assay [1] and in assay [2] was less than 1000 nM each time. Consider `Nc1nc2c(ncn2[C@@H]2O[C@@H]3COP(=O)(S)OCCn4nc(-c5cncs5)nc4COP(=O)(S)O[C@@H]2[C@H]3F)c(=O)[nH]1` (some centres undefined), for which, in assay [1], the IC50 was less than 1000 nM.
